{
  "sequences": {"note": "Chains of the proteins cited; added tags and fusions are not shown.", "UniProt P35222, whole entry": "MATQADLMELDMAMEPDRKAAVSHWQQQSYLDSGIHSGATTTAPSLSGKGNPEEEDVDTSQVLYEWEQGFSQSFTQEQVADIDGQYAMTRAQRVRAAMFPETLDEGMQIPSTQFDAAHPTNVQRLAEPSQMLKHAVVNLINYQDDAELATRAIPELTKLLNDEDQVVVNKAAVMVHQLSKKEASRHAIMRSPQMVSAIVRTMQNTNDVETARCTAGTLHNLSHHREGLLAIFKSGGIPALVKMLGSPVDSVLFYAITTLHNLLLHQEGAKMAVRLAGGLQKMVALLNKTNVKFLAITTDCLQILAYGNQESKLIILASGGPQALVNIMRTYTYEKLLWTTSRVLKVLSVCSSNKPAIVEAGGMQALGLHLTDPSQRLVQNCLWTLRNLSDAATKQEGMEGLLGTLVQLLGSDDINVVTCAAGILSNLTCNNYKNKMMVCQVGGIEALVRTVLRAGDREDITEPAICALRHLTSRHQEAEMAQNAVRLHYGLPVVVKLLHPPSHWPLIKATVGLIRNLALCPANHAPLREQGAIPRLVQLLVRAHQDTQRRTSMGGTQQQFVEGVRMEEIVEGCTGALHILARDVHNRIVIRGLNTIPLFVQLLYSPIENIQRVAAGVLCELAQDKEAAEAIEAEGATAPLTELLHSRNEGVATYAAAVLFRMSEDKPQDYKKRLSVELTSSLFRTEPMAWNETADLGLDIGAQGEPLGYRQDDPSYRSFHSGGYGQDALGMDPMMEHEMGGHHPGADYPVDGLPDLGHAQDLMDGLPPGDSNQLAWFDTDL"},
  "source": "patent US20250019371A1",
  "about": "“SMALL-MOLECULAR INHIBITORS FOR THE BETA-CATENIN/ B-CELL LYMPHOMA 9 PROTEIN-PROTEIN INTERACTION” (H. LEE MOFFITT CANCER CENTER AND RESEARCH INSTITUTE, INC., priority 2021, published 2025)",
  "molecular_target": "T1, β-catenin/BCL9 PPI (Homo sapiens, UniProt P35222)",
  "T1 construct": "Full-length β-catenin (residues 1-781); host or cells: E. coli BL21 DE3",
  "assay": "AlphaScreen competitive inhibition assay of β-catenin/BCL9 PPI",
  "type": "binding",
  "settings": "read-out: Ki for disruption of the β-catenin/BCL9 PPI",
  "description": "AlphaScreen Assays of β-Catenin and BCL9 Interaction. Experiments were performed in white opaque 384-well plates from PerkinElmer (Waltham, MA), and the samples were read on a Biotek Synergy 2 plate reader (Winooski, VT) with excitation at 680 nm and emission at 570 nm. The standard AlphaScreen protocol was used with a sensitivity setting of 200. All dilutions were made in 1x assay buffer containing 25 mM Hepes (pH 7.4), 100 mM NaCl, 0.01% Triton X-100 and 0.1% BSA to minimize nonspecific interactions. For the competitive inhibition assays of the β-catenin/BCL9 PPI, the negative control (equivalent to 0% inhibition) refers to 5.0 nM biotinylated BCL9, 50 nM His6-tagged β-catenin, and 10 μg/mL donor and acceptor beads in a final volume of 25 μL assay buffer, but no tested inhibitor present. The positive control (equivalent to 100% inhibition) refers to 5.0 nM biotinylated BCL9 and 10 μg/mL donor and acceptor beads in a final volume of 25 μL assay buffer.\nFor the β-catenin/BCL9 assay, 5 nM biotinylated BCL9, and 50 nM His6-tagged 8-catenin were incubated in assay buffer for 30 min. Different concentrations of the tested inhibitor were added and incubated in 20 μL assay buffer for another 1 h. […] The IC50 value was determined by nonlinear least-square analysis of GraphPad Prism 8.0. […] The results were expressed as mean±standard deviation.",
  "data": [
    {"smiles": "CC(C)c1ccc(COC(=O)N2CCC[C@@H](c3cccc(OC(C)(C)C(=O)O)c3)C2)cc1", "note": "[CP868388]", "values": [
      {"measurement": "Ki", "result": 11, "unit": "µM"}
    ]}
  ]
}
